Several values for one entry are separate records, joined by “and”; a condition that tells them apart may be missing. Identical values can stand only once. The list shows a part of the results, in another mix than the full data.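 Single-dose data. Exposure time 48 hours. Values below 10 considered active.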 Activity calls are given as the source filed them.
Each molecule was assayed on MDA-MB-468 breast (assay: NCI-60 one-dose screen, 48 h (100 = growth as untreated, 0 = no growth, -100 = all killed)). Conditions: 10 µM.

Question: With `O=C(O)CCc1ccc(CSCCCl)cc1` as the molecule, how does the growth read?
Answer: The growth was inactive: 103%.

Question: For `OCC#CCN(CCCl)CCCl`, which growth is on record?
Answer: Its growth is inactive: 89.8%.

Question: Which growth does the source give for `COc1cccc(N(CCCl)CCCl)c1OC` here?
Answer: The growth was inactive: 46.9%.

Question: How did the growth turn out when `COc1c(C)cc(N(CCCl)CCCl)c2ccccc12` was run?
Answer: Its growth is inactive: 38.9%.

Question: Which growth does the source give for `CC1(C)NC(=O)N(CCN(CCCl)CCCl)C1=O` here?
Answer: The growth was inactive: 99.5%.

Question: How did the growth turn out when `Cc1cccc(NC2(C#N)CCN(Cc3ccccc3)CC2)c1` was run?
Answer: Its growth is inactive: 115%.

Question: Which growth does the source give for `COc1ccc(N)cc1CN(CCCl)CCCl` here?
Answer: Its growth is inactive: 75.1%.

Question: How did the growth turn out when `c1ccc(CN2CCC(Nc3ccccc3)CC2)cc1` was run?
Answer: The growth was inactive: 104%.

Question: For `Cc1ccc(NC2(C(N)=O)CCN(Cc3ccccc3)CC2)cc1`, which growth is on record?
Answer: The growth was inactive: 104%.

Question: With `Cc1ccc(NC2(C(N)=O)CCNCC2)cc1` as the molecule, how does the growth read?
Answer: Its growth is inactive: 103%.

Question: `O=c1[nH]cc(CN(CCCl)CCCl)c(=O)[nH]1` was tested. Which growth did it give?
Answer: Its growth is inactive: 97.5%.

Question: Which growth does the source give for `O=C(O)CCCCc1ccc(N(CCCl)CCCl)cc1` here?
Answer: The growth was inactive: 91.3%.

Question: How did the growth turn out when `COc1cc(CN(CCCl)CCBr)cc(OC)c1` was run?
Answer: Its growth is inactive: 113%.

Question: `O=C1C(=O)N(CN(CCCl)CCCl)c2ccccc21` was tested. Which growth did it give?
Answer: Its growth is inactive: 108%.

Question: With `ClCCN1CCN(CCCl)CC1` as the molecule, how does the growth read?
Answer: The growth was inactive: 93.8% and inactive: 77.2%.

Question: With `CC(C)(C)C(=O)CBr` as the molecule, how does the growth read?
Answer: Its growth is inactive: 94.9%.

Question: How did the growth turn out when `ClCCN1[C@@H](CCl)CC[C@@H]1c1ccccc1` was run?
Answer: The growth was inactive: 95.5%.

Question: `Cc1ccc(NC2(C#N)CCN(Cc3ccccc3)CC2)cc1` was tested. Which growth did it give?
Answer: Its growth is inactive: 102%.

Question: Which growth does the source give for `CC(C)NP(=O)(F)NC(C)C` here?
Answer: The growth was inactive: 104%.

Question: `CC(=O)N(c1ccccc1)C1CCNCC1` was tested. Which growth did it give?
Answer: Its growth is inactive: 116%.

Question: `O/N=C/c1ccc(N(CCCl)CCCl)cc1` was tested. Which growth did it give?
Answer: The growth was inactive: 57.6%.

Question: How did the growth turn out when `C1CCNCC1.O=C(O)C(O)c1ccc(N(CCCl)CCCl)cc1` (stereo not given) was run?
Answer: The growth was inactive: 94.3%.

Question: `CCNC(=O)Cc1ccc(N(CCCl)CCCl)cc1` was tested. Which growth did it give?
Answer: Its growth is inactive: 73.2%.

Question: Which growth does the source give for `Cc1ccc(S(=O)(=O)CN(CCBr)CCBr)cc1` here?
Answer: Its growth is inactive: 103%.

Question: `Cc1ccc(N(CCCl)CCCl)cc1` was tested. Which growth did it give?
Answer: Its growth is inactive: 29.8%.

Question: For `O=P1(N(CCCl)CCCl)SCCCS1`, which growth is on record?
Answer: The growth was inactive: 103%.

Question: `CCOc1ccc(N(CCCl)CCCl)cc1` was tested. Which growth did it give?
Answer: Its growth is inactive: 47.7%.

Question: Which growth does the source give for `Oc1ccc(O)c(CN(CCCl)CCCl)c1` here?
Answer: Its growth is inactive: 101%.

Question: How did the growth turn out when `O=C1CCN(Cc2ccccc2)CC1` was run?
Answer: The growth was inactive: 99.7%.

Question: With `N#CC1(Nc2ccccc2)CCN(Cc2ccccc2)CC1` as the molecule, how does the growth read?
Answer: The growth was inactive: 82.3%.

Question: For `Cc1ccc2oc(=O)cc(CN(CCCl)CCCl)c2c1`, which growth is on record?
Answer: Its growth is inactive: 93.9%.

Question: How did the growth turn out when `ClCCN(CCCl)Cc1ccc2c(c1)OCO2` was run?
Answer: Its growth is inactive: 67.8%.

Question: Which growth does the source give for `NC(Cc1cccc(N(CCCl)CCCl)c1)C(=O)O` (stereo not given) here?
Answer: The growth was inactive: 77.6% and inactive: 83.2%.

Question: `Oc1ccc(N(CCCl)CCCl)cc1` was tested. Which growth did it give?
Answer: Its growth is inactive: 42%.

Question: Which growth does the source give for `O=CC(O)C(O)C(O)C(O)CN(CCCl)CCCl` (stereo not given) here?
Answer: The growth was inactive: 98.6%.

Source: PubChem BioAssay (NCI)
